This is a selection; strong and weak results do not stand in their true shares. Records with an inconclusive call do not appear. Activity calls are given as the source filed them. Calls follow the shape of the dose curve; as a rule, active = well fitted curve in either direction with a large enough effect; inconclusive = small, poorly fitted or top-dose-only effect, or another doubt; inactive = flat fitted curve, though single readings scatter.
% is scaled to controls: 0 for no effect and ±100 for the full control effect.

This test relates to Hsp90 C-terminal peptide / TPR2A (Hop) interaction, human. Put plainly: qHTS Assay for Disrupters of an Hsp90 Co-Chaperone Interaction. The note with it: AlphaScreen TPR2A-His6 binding biotin-Hsp90 C-terminal peptide; at 57 µM (top of the series) unless noted. From the text: NIH Chemical Genomics Center [NCGC]
NIH Molecular Libraries Screening Centers Network [MLSCN]
Hsp90 (heat shock protein 90) is the essential molecular chaperone and it accounts for 1-2% of all cytosolic proteins and is critical for the activity of diverse cellular proteins that are involved in a variety of cellular processes, including development, cell cycle, and steroid hormone signaling. Its client proteins include signaling kinases such as IGF1R, Akt, v-Src, Raf-1; regulators of cell survival such as Bcr-Abl; and transcription factors such as mutated p53, estrogen and progesterone receptors. Hsp90 has emerged as an important target for cancer treatment due to its essential role in maintaining transformation and regulating the function of oncogenic signaling proteins.
The in vivo function of Hsp90 is regulated by the binding and hydrolysis of ATP at its N-terminal. Geldanamycin binds to ATP site and inhibit Hsp90 function. Geldanamycin and its analogues are under clinical trials in cancer patients.
This domain contains the binding site for tetratricopeptide repeat (TPR) domains on HOP (Hsp Organizing Protein). TPR is a structural motif used by a significant number of cochaperones by which the in vivo function of Hsp90 is regulated. TPR2A on HOP binds specifically to MEEVD motif of the C-terminal of Hsp90.
A homogeneous AlphaScreen is developed to assess the interaction between TPR2A and MEEVD motif of the C-terminal of Hsp90 by using the isolated TPR2A domain and a synthesized 20mer Hsp90 C terminal peptide. AlphaScreen is two bead-based proximity-dependent chemical energy transfer luminescent assay platform. TPR2A-His-6 and biotinylated Hsp90 C terminal peptide will bring streptavidin donor beads and nickel chelate acceptor beads to a proximity range (less than 200 nm), and subsequently lead a chemical luminescent reaction upon exciting donor beads with 680 nm laser. Inhibition of TPR2A and MEEVD motif interaction by small molecules could attenuate or abolish this chemical luminescent reaction.
Counter screening: Biotinylated-His-6 (PerkinElmer) can be utilized as a counter screen, as it serves as a linker to bring streptavidin beads and nickel chelate beads together. The counter screen can exclude alpha screen platform false positives due to small molecules being metal chelators, biotin analogues and imidazole analogues, or due to interfering with oxygen release from donor beads. Such an assay should be utilized to qualify any activity observed in this screen.
NCGC Assay Protocol Summary:
The assay was performed on 1536-well white plate (untreated solid bottom). Liquids were dispensed by 1536-well plate washer (Kalypsys, San Diego, CA). Plates were read on EnVision (PerkinElmer, Boston, MA).TPR2A-His6 was produced using a bacteria expression system and purified using a well developed method (Ghosh et al., 2000). Hsp90 C terminal 20-mer peptide with or without an N-terminal biotin group are synthesized using automated solid phase synthesis by the Yale Keck facility. The composition of assay buffer was (in mM) 25 HEPES, 100 KCl, 2 MgCl2 and 2 DTT; 0.1% BSA and 0.01% Tween-20. TPR2A-His6 binding to biotin-Hsp90 will bring streptavidin donor beads and nickel chelate acceptor beads (PerkinElmer) together and can be measured by Alpha reading by EnVision (PerkinElmer). Free Hsp90 blocks biotin-Hsp90 binding to TPR2 and serves as a positive control in the current asssay.
The assay was performed at room temperature. All compounds were screened as titrations from […] to 46 uM final concentration. The assay was performed in 1536-well format plates (untreated white solid bottom, Corning Inc.) as follows:
Sequence,Parameter,Value,Description
1,Reagent,3 uL TPR2A-His6,Final concentration was 5nM
2,Compound,23 nL,Final titration was from 0.7 nM to 46 uM
3,Time,15 minutes,Room temperature
4,Reagent,1 uL biotin-Hsp90,With and without free Hsp90. Final concentration was 10 nM for biotin-Hsp90 and 10uM for free Hsp90.
5,Time,1 hour,Room temperature
[…]
Regarding `CP(=O)(Nc1ccccc1F)Oc1ccccc1` (configuration not stated), the activity change, negative = inhibition is inactive: -0.711%.

As for `CCC(C)(OO)OOC(C)(CC)OO` (configuration not stated), the activity change, negative = inhibition is inactive: 0.712%.

As for `Cc1cccc([N+](=O)[O-])c1[N+](=O)[O-]`, the activity change, negative = inhibition is inactive: -1.87%.

For `CN(C)CCOC(=O)C(O)(c1ccccc1)C1CCCCC1` (configuration not stated), the activity change, negative = inhibition is inactive: -2%.

Turning to `Cc1ccc([N+](=O)[O-])c([N+](=O)[O-])c1`, the activity change, negative = inhibition was inactive: -4.72%.

`Cc1c([N+](=O)[O-])cccc1[N+](=O)[O-]`: the activity change, negative = inhibition is inactive: 3.98%.

For `CCOP(=O)(CC)OCC`, the activity change, negative = inhibition was inactive: -0.92%.

`CCOP(C)(=S)SCC(=O)NC(C)(CC)C(=O)O` (configuration not stated): the activity change, negative = inhibition was inactive: 1.95%.

As for `NNC(NN)NN.n1nc(-c2nn[nH]n2)n[nH]1`, the activity change, negative = inhibition was inactive: -2.14% [at 11 µM].

In the case of `Cc1ccccc1NP(C)(=O)Nc1ccccc1C`, the activity change, negative = inhibition is inactive: -2.27%.

Regarding `[NH4+].[O-][Cl+3]([O-])([O-])[O-]`, the activity change, negative = inhibition was inactive: -0.364%.

`CP(=O)(Nc1ccc2c(c1)OCCO2)Oc1ccccc1` (configuration not stated): the activity change, negative = inhibition was inactive: -7.12%.

In the case of `CP(=O)(Oc1ccccc1)N1CCOC1=O` (configuration not stated), the activity change, negative = inhibition is inactive: -3.21%.

Turning to `C/C1=C2N=C(/C=C3N=C(/C(C)=C4\[N-][C@@](C)([C@H]5N=C1[C@@](C)(CCC(=O)NC[C@H](C)OP(=O)([O-])O[C@@H]1[C@H](O)[C@H](n6cnc7cc(C)c(C)cc76)O[C@@H]1CO)[C@@H]5CC(N)=O)[C@](C)(CC(N)=O)[C@H]4CCC(N)=O)[C@@](C)(CC(N)=O)[C@@H]\3CCC(N)=O)C(C)(C)[C@@H]/2CCC(N)=O.[C-]#N.[Co+3]`, the activity change, negative = inhibition was inactive: -0.479% [at 26 µM].

Turning to `COc1ccccc1OP(C)(=O)Nc1ccc(C)c(C)c1` (configuration not stated), the activity change, negative = inhibition is inactive: -2.93%.

In the case of `Cc1nc2ccc3ccccc3c2o1.O=[N+]([O-])c1cc([N+](=O)[O-])c(O)c([N+](=O)[O-])c1`, the activity change, negative = inhibition was inactive: -6.66%.

Consider `CP(=O)(Nc1ccccn1)Oc1ccccc1` (configuration not stated), for which the activity change, negative = inhibition was inactive: -3.6%.

Take `O=[N+]([O-])[O-].[NH4+]`: the activity change, negative = inhibition was inactive: -3.32%.

In the case of `COc1ccccc1OP(C)(=O)Nc1ccc(C)cc1` (configuration not stated), the activity change, negative = inhibition is inactive: -0.664%.

For `Cc1ccc(NP(C)(=O)Oc2ccccc2)c(C)c1` (configuration not stated), the activity change, negative = inhibition was inactive: -8.58%.

Consider `CP(=S)(Nn1cnnc1)Oc1ccccc1` (configuration not stated), for which the activity change, negative = inhibition was inactive: -1.01%.

As for `CP(=O)(NC(=O)Nc1ccccc1)Oc1ccccc1` (configuration not stated), the activity change, negative = inhibition is inactive: -2.36%.

Consider `CCOP(C)(=S)SCC(=O)NC(C)C(=O)O` (configuration not stated), for which the activity change, negative = inhibition was inactive: 3.44%.

On to `Cc1nc2ccc3ccccc3c2s1.O=[N+]([O-])c1cc([N+](=O)[O-])c(O)c([N+](=O)[O-])c1`, for which the activity change, negative = inhibition is inactive: -0.255%.

As to `O=[N+]([O-])c1cccc([N+](=O)[O-])c1`, the activity change, negative = inhibition is inactive: -3.42%.

In the case of `Cc1ccc([N+](=O)[O-])cc1[N+](=O)[O-]`, the activity change, negative = inhibition was inactive: -8.31%.

Consider `Cc1ccc(C)c(NP(C)(=O)Oc2ccccc2)c1` (configuration not stated), for which the activity change, negative = inhibition was inactive: -1.6%.

Source of the values: PubChem BioAssay AID595 (National Center for Advancing Translational Sciences (NCATS), 2007).
